Measurements from patent EP1007066B1, “SCREENING METHODS FOR GLUCOCORTICOID RECEPTOR BINDING SUBSTANCES USING TRYPTERYGIUM WILFORDII PREPARATIONS” (priority 1996, dated 1998).

Experiment: in vitro
Type: cell-based
Description: The cells were assayed for cell viability by using a cytoflowmeter (FACSCAN) after the cells were stained with propidium iodine. […]

SMILES: CC(C)[C@]12O[C@H]1[C@@H]1O[C@]13[C@]1(O[C@H]1C[C@H]1C4=C(CC[C@@]13C)C(=O)OC4)[C@@H]2O [triptolide]
- viability at 72 hr, 1 ng/ml: 89.3%
